Earlier results in patent publication US12484575B2, “Mosquito egg cryopreservation” (Sanaria Inc., priority 2019, dated 2025).

Tested on: An. gambiae embryos
Conditions: used as permeabilization reagents; cited from earlier work

butanol
Toxicity to embryos: extremely toxic to the embryos
